Among the data in patent publication EP0072531A1, “Derivatives of cyclophosphamide, process for their preparation and their use” (dated 1983) are LD50 values, retold here.

The nature of this series: toxicity (LD50) compared with cyclophosphamide. To be noted: multiple of the LD50 of Cyclophosphamid; no species or route printed.

Regarding `O=P1(N(CCCl)CCCl)NCC(O)CO1` (stereo not shown), the LD50 entry is “lo”.
